Test results published in patent US9290459B1, “Substituted bicyclic dihydropyrimidinones and their use as inhibitors of neutrophil elastase activity” (Boehringer Ingelheim International GmbH, priority 2013, dated 2016).
Where two headings read alike, the source gives them in different places.

Chains of the proteins cited; added tags and fusions are not shown. Residues count along the entry.
UniProt P08246, 30-247: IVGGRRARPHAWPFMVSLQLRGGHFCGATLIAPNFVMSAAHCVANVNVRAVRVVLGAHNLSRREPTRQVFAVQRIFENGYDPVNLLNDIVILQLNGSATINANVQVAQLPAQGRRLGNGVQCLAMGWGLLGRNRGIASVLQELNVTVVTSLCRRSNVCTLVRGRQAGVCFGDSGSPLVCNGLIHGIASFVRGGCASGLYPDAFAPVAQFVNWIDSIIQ

Assays:
[1] = target: Human neutrophil elastase (Homo sapiens (Human), UniProt P08246); assay: Human Neutrophil Elastase Assay; conditions: substrate MeOSuc-Ala-Ala-Pro-Val-AMC 250 μM, pH 7.5
[2] = target: neutrophil elastase in human plasma (Homo sapiens (Human), UniProt P08246); assay: Neutrophil elastase inhibitory activity in human plasma (zymosan-stimulated blood); assay type: biochemical
[3] = neutrophil elastase enriched human plasma from zymosan-stimulated blood, read-out: EC50

Row | SMILES | IC50 ([1]; human neutrophil elastase) | EC50 [2, 3] | EC50 ([2]; EC50, neutrophil elastase enriched human plasma from zymosan-stimulated blood) | IC50 ([1]; IC50, human neutrophil elastase)
1 | CNC(=O)N1C(=O)N(c2cccc(C(F)(F)F)c2)C2=C(C(=O)CC2)[C@@H]1c1ccc(C#N)cc1 | 622 nM |  |  | 
2 | CN1C(=O)N(c2cccc(C(F)(F)F)c2)C2=C(C(=O)CC2)C1c1ccc(C#N)cc1 (stereo not drawn) [Example 2, 4-(3-Methyl-2,5-dioxo-1-(3-(trifluoromethyl)phenyl)-2,3,4,5,6,7-hexahydro-1H-cyclopenta[d]pyrimidin-4-yl)benzonitrile] | 6.4 nM |  |  | 
3 | CNC(=O)N1C(=O)N(c2cccc(C(F)(F)F)c2)C2=C(C(=O)CC2)[C@H]1c1ccc(C#N)cc1 [Example 7.1A, (R)-4-(4-Cyanophenyl)-N-methyl-2,5-dioxo-1-(3-(trifluoromethyl)phenyl)-4,5,6,7-tetrahydro-1H-cyclopenta[d]pyrimidine-3(2H)-carboxamide] | < 1 nM | 2 nM |  | 
4 | N#Cc1ccc([C@@H]2C3=C(CCC3=O)N(c3cccc(C(F)(F)F)c3)C(=O)N2C(=O)NCCO)cc1 [Example 7.2A, (R)-4-(4-Cyanophenyl)-N-(2-hydroxyethyl)-2,5-dioxo-1-(3-(trifluoromethyl)phenyl)-4,5,6,7-tetrahydro-1H-cyclopenta[d]pyrimidine-3(2H)-carboxamide] | < 1 nM | 1 nM |  | 
5 | N#Cc1ccc([C@H]2C3=C(CCC3=O)N(c3cccc(C(F)(F)F)c3)C(=O)N2C(=O)NCCO)cc1 [Example 7.2B, (S)-4-(4-Cyanophenyl)-N-(2-hydroxyethyl)-2,5-dioxo-1-(3-(trifluoromethyl)phenyl)-4,5,6,7-tetrahydro-1H-cyclopenta[d]pyrimidine-3(2H)-carboxamide] | 550 nM |  |  | 
6 | CN1C(=O)N(c2ccnc(C(F)(F)F)c2)C2=C(C(=O)CC2)C1c1ccc(C#N)cc1S(C)(=O)=O (stereo not drawn) [Example 29, 4-(3-Methyl-2,5-dioxo-1-(2-(trifluoromethyl)pyridin-4-yl)-2,3,4,5,6,7-hexahydro-1H-cyclopenta[d]pyrimidin-4-yl)-3-(methylsulfonyl)benzonitrile] |  |  | 1 nM | 4.2 nM
